Earlier results, collected in patent US10961240B2, “Formulations of a compound modulating kinases” (Plexxikon Inc., priority 2017, dated 2021).

Tested on: diffuse-type giant cell tumor
Conditions: patients

RG7155: CSF1R inhibitor RG7155; cited paper title names an anti-CSF-1R antibody
clinical response: clinical objective responses
